Test results from paper PMC12102759 (Protein Science : A Publication of the Protein Society, 2025).

Tested on: AP2M1 MU
Type: binding, human

Substance	PSSM value of the substitution (DMS by phage display)	PSSM value of the substitution, averaged over the two overlapping peptides
VSDIDYVPLKSATAIT P8G (VSDIDYVGLKSATAIT)	0	
VSDIDYVPLKSATAIT L9D (VSDIDYVPDKSATAIT)	0	
QVVSDIDYVPLKSATA V3P (QVPSDIDYVPLKSATA)	0.007805	
VSDIDYVPLKSATAIT S11L (VSDIDYVPLKLATAIT)	0.002329	
VSDIDYVPLKSATAIT A14H (VSDIDYVPLKSATHIT)	0.006302	
VSDIDYVPLKSATAIT V7H (VSDIDYHPLKSATAIT)	0.001087	
QVVSDIDYVPLKSATA D7D	0.004403	
QVVSDIDYVPLKSATA D5V (QVVSVIDYVPLKSATA)	0	
VSDIDYVPLKSATAIT Y6L (VSDIDLVPLKSATAIT)	0	
VSDIDYVPLKSATAIT P8I (VSDIDYVILKSATAIT)	0	
VSDIDYVPLKSATA(averaged) V1Y (YSDIDYVPLKSATA)		0
VSDIDYVPLKSATAIT L9N (VSDIDYVPNKSATAIT)	0	
QVVSDIDYVPLKSATA T15A (QVVSDIDYVPLKSAAA)	0.002863	
QVVSDIDYVPLKSATA I6E (QVVSDEDYVPLKSATA)	0	
VSDIDYVPLKSATA(averaged) A14Y (VSDIDYVPLKSATY)		5.157e-5
VSDIDYVPLKSATAIT K10R (VSDIDYVPLRSATAIT)	0.02159	
VSDIDYVPLKSATAIT I4W (VSDWDYVPLKSATAIT)	0	
VSDIDYVPLKSATA(averaged) A14D (VSDIDYVPLKSATD)		0.006127
VSDIDYVPLKSATA(averaged) D5N (VSDINYVPLKSATA)		0.03259
QVVSDIDYVPLKSATA S13S	0.00214	
VSDIDYVPLKSATAIT V7Y (VSDIDYYPLKSATAIT)	0.0004595	
VSDIDYVPLKSATA(averaged) D5W (VSDIWYVPLKSATA)		0.000367

Substance	PSSM value of the substitution (DMS by phage display)	PSSM value of the substitution, averaged over the two overlapping peptides
VSDIDYVPLKSATA(averaged) P8Q (VSDIDYVQLKSATA)		0
QVVSDIDYVPLKSATA A14L (QVVSDIDYVPLKSLTA)	9.087e-5	
VSDIDYVPLKSATAIT A14I (VSDIDYVPLKSATIIT)	0	
QVVSDIDYVPLKSATA A14P (QVVSDIDYVPLKSPTA)	0.0001771	
QVVSDIDYVPLKSATA S4P (QVVPDIDYVPLKSATA)	0.01428	
VSDIDYVPLKSATA(averaged) Y6N (VSDIDNVPLKSATA)		0
VSDIDYVPLKSATAIT S11G (VSDIDYVPLKGATAIT)	0	
QVVSDIDYVPLKSATA S4Y (QVVYDIDYVPLKSATA)	0.5235	
VSDIDYVPLKSATAIT T13N (VSDIDYVPLKSANAIT)	0.0008055	
VSDIDYVPLKSATAIT P8A (VSDIDYVALKSATAIT)	0	
VSDIDYVPLKSATA(averaged) I4T (VSDTDYVPLKSATA)		0
QVVSDIDYVPLKSATA K12M (QVVSDIDYVPLMSATA)	0.03934	
QVVSDIDYVPLKSATA A16A	0.002611	
QVVSDIDYVPLKSATA V2S (QSVSDIDYVPLKSATA)	0.002909	
QVVSDIDYVPLKSATA S4E (QVVEDIDYVPLKSATA)	0	
VSDIDYVPLKSATAIT L9Q (VSDIDYVPQKSATAIT)	0	
QVVSDIDYVPLKSATA Y8W (QVVSDIDWVPLKSATA)	0	
VSDIDYVPLKSATAIT V7E (VSDIDYEPLKSATAIT)	0.002945	
VSDIDYVPLKSATA(averaged) K10P (VSDIDYVPLPSATA)		0.0009616
VSDIDYVPLKSATA(averaged) V1Q (QSDIDYVPLKSATA)		0.0001975
QVVSDIDYVPLKSATA S13M (QVVSDIDYVPLKMATA)	0	
QVVSDIDYVPLKSATA D5P (QVVSPIDYVPLKSATA)	0.7415	

Substance	PSSM value of the substitution (DMS by phage display)	PSSM value of the substitution, averaged over the two overlapping peptides
VSDIDYVPLKSATAIT D5N (VSDINYVPLKSATAIT)	0.06519	
VSDIDYVPLKSATAIT D5K (VSDIKYVPLKSATAIT)	0.04531	
VSDIDYVPLKSATAIT K10D (VSDIDYVPLDSATAIT)	0.001405	
VSDIDYVPLKSATA(averaged) D5L (VSDILYVPLKSATA)		0.0002977
VSDIDYVPLKSATAIT P8Q (VSDIDYVQLKSATAIT)	0	
VSDIDYVPLKSATAIT L9R (VSDIDYVPRKSATAIT)	0	
VSDIDYVPLKSATAIT D3K (VSKIDYVPLKSATAIT)	0.05908	
VSDIDYVPLKSATA(averaged) A14I (VSDIDYVPLKSATI)		0.000644
QVVSDIDYVPLKSATA I6A (QVVSDADYVPLKSATA)	4.874e-5	
QVVSDIDYVPLKSATA L11A (QVVSDIDYVPAKSATA)	0	
VSDIDYVPLKSATAIT I15V (VSDIDYVPLKSATAVT)	0.01665	
QVVSDIDYVPLKSATA P10I (QVVSDIDYVILKSATA)	0.04265	
VSDIDYVPLKSATAIT I15W (VSDIDYVPLKSATAWT)	0.009579	
VSDIDYVPLKSATAIT Y6N (VSDIDNVPLKSATAIT)	0	
VSDIDYVPLKSATAIT I15D (VSDIDYVPLKSATADT)	0.02534	
VSDIDYVPLKSATA(averaged) L9L		0.5696
QVVSDIDYVPLKSATA D5R (QVVSRIDYVPLKSATA)	0	
VSDIDYVPLKSATA(averaged) D3A (VSAIDYVPLKSATA)		0.01881
VSDIDYVPLKSATAIT S2Y (VYDIDYVPLKSATAIT)	0.001913	
VSDIDYVPLKSATA(averaged) P8A (VSDIDYVALKSATA)		0
QVVSDIDYVPLKSATA S13V (QVVSDIDYVPLKVATA)	6.609e-5	
QVVSDIDYVPLKSATA V3H (QVHSDIDYVPLKSATA)	0.8492	
